The test concerns the target mGluR4 (Homo sapiens, UniProt Q14833). As to the kind of experiment: mGlu4 PAM potentiation assay, CHO cells transfected with human mGluR4, Ca2+-sensitive dye fluorescence. The test is classed as cell-based. The settings on record: read-out: mGlu4 PAM EC50. The procedure: The disclosed compounds and compositions can be evaluated for their ability to act as a potentiator of metabotropic glutamate receptor activity, in particular mGluR4 activity, by any suitable known methodology known in the art. For example, Chinese Hamster Ovary (CHO) cells transfected with human mGluR4 or HEK cells co-transfected with rat mGluR4 and the G-protein regulated Inwardly Rectifying Potassium channel (GIRK) were plated in clear bottom, assay plates for assay in a Hamamatsu FDSS Fluorometric Plate Reader. The cells were loaded with either a Ca2+-sensitive fluorescent dye or the thallium responsive dye and the plates were washed and placed into a suitable kinetic plate reader. For human mGluR4 assays, a fluorescence baseline was established for 3-5 seconds, the disclosed compounds were then added to the cells, and the response in cells was measured. Approximately two and a half minutes later, a concentration of mGluR4 orthosteric agonist (e.g. glutamate, L-AP4, or L-SOP) eliciting approximately 20% (EC20) of the maximal agonist response was added to the cells, and the response was measured. Two minutes later, a concentration of mGluR4 agonist (e.g. glutamate, L-AP4, or L-SOP) eliciting 80% (EC80) of the maximal agonist response was added to the cells, and the response was measured. […]

Protein sequences, listed by entry. Tags and fused reporters are not part of them. Residues count along the entry.
UniProt Q14833, 33-912 limits assumed: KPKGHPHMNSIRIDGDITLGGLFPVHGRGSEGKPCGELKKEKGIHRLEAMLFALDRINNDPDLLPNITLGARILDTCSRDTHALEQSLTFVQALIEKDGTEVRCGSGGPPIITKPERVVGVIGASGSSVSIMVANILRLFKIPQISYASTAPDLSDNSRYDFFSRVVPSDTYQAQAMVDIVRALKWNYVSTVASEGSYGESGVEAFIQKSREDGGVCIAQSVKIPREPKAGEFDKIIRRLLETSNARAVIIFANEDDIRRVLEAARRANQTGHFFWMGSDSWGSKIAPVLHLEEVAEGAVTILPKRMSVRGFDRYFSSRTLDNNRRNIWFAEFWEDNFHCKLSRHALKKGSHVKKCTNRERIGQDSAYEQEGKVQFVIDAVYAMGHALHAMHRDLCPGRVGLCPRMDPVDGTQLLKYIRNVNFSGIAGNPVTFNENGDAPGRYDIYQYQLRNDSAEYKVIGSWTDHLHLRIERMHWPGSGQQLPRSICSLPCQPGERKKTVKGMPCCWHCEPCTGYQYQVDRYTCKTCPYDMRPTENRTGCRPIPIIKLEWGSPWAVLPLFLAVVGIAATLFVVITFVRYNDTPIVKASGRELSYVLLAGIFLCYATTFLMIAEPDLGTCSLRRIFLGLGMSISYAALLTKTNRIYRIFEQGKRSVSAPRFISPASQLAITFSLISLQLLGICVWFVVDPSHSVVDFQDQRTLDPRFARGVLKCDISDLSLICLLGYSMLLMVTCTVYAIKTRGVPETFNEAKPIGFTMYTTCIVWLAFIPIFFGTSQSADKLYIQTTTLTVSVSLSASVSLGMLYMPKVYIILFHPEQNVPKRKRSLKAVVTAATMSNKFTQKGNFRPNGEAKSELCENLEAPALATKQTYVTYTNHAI

Structures are written as SMILES.

For orientation: EC50 means the concentration giving half of the maximal effect. Take `CC1(C)CC(COc2nccc3cc(NC(=O)c4ncccc4O)ccc23)CO1` (centres unmarked): the EC50 stood at 457 nM.
Regarding `O=C(Nc1ccc2c(OCC3CCOC3)ncc(F)c2c1)c1ncccc1O` (centres unmarked), the EC50 amounted to 158 nM.

The record behind these values is patent publication US11319304B2, “Pyridine quinoline compounds as MGLUR4 allosteric potentiators, compositions, and methods of treating neurological dysfunction” (Vanderbilt University, priority 2017, dated 2022).
